Numbering of substitutions follows the chain as printed. Active and inactive are the calls of the source.
Key:
Assay type in all cases: cell-based
[1] = system: T1, Trace amine-associated receptor 1 (Homo sapiens), Q96RJ0 [W264A]; experiment: Agonist activity at TAAR1 W264A mutant (unknown origin) expressed in HEK293 cells assessed as increase in cAMP accumulation by Glosensor-based cAMP assay
T1 sequence (whole entry): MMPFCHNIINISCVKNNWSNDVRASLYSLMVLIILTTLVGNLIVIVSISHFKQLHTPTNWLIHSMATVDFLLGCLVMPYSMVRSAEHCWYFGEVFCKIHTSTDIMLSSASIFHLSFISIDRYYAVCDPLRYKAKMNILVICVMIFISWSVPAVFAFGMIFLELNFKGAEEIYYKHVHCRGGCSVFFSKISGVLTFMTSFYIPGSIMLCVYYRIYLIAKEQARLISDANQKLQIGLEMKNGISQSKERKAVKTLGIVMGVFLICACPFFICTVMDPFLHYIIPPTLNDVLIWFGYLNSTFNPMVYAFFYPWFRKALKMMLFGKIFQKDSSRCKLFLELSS

[2] = system: T2, Trace amine-associated receptor 1 (Homo sapiens), Q96RJ0 [F186A]; experiment: Agonist activity at TAAR1 F186A mutant (unknown origin) expressed in HEK293 cells assessed as increase in cAMP accumulation by Glosensor-based cAMP assay
T2 sequence (whole entry): T1 sequence (whole entry) with F186A, A264W

[3] = system: T3, Trace amine-associated receptor 1 (Homo sapiens), Q96RJ0 [V184A]; experiment: Agonist activity at TAAR1 V184A mutant (unknown origin) expressed in HEK293 cells assessed as increase in cAMP accumulation by Glosensor-based cAMP assay
T3 sequence (whole entry): T1 sequence (whole entry) with V184A, A264W

[4] = system: T4, Trace amine-associated receptor 1 (Homo sapiens), Q96RJ0 [I290A]; experiment: Agonist activity at TAAR1 I290A mutant (unknown origin) expressed in HEK293 cells assessed as increase in cAMP accumulation by Glosensor-based cAMP assay
T4 sequence (whole entry): T1 sequence (whole entry) with A264W, I290A

[5] = system: T5, Trace amine-associated receptor 1 (Homo sapiens), Q96RJ0 [Y294A]; experiment: Agonist activity at TAAR1 Y294A mutant (unknown origin) expressed in HEK293 cells assessed as increase in cAMP accumulation by Glosensor-based cAMP assay
T5 sequence (whole entry): T1 sequence (whole entry) with A264W, Y294A

[6] = system: T6, Trace amine-associated receptor 1 (Homo sapiens), Q96RJ0 [D103A]; experiment: Agonist activity at TAAR1 D103A mutant (unknown origin) expressed in HEK293 cells assessed as increase in cAMP accumulation by Glosensor-based cAMP assay
T6 sequence (whole entry): T1 sequence (whole entry) with D103A, A264W

Measured: Activity

c1cc2c(s1)[C@@H]1CNCCN1CC2
inactive: all assays above
